Reference: US5863950A, “HIV protease inhibitors” (Agouron Pharmaceuticals, Inc., priority 1994, dated 1999)

Target: T1, HIV-1 protease (Human immunodeficiency virus type 1 group M subtype B, UniProt P04585)
T1 construct: purified HIV-1 protease
Assay: biochemical
Assay type: biochemical
Method: 1. Proteolytic activity of purified HIV-1 protease was routinely measured using the chromogenic assay developed by Richards et al. (J. Biol. Chem. 265: 7733 (1990)). Synthetic peptide His-Lys-Ala-Arg-Val-Leu-Phe (pNO2)-Glu-Ala-Nle-Ser-NH2 (American Peptide Company) was used as the substrate.
2. The assay was carried out in 0.5M NaCl, 50 mM MES pH 5.6, 2% DMSO (dimethylsulfoxide) at 37° C. Cleavage of the scissile bond between leucine and paranitro-phenylalanine (Phe(pNO2)) was assayed by spectrophotometric monitoring of the decrease in absorbance at 305 nm. Initial velocity was determined as the rate of decline of absorbance during the first 100 seconds of reaction.
3. […] Between 15-25 concentrations of inhibitor were added and velocity of reaction was measured at each of the concentrations, as described above.
4. Inhibition constants were calculated using the method of Jackson et al. (Adv. in Enzyme Regulation 22: 187 (1984)).

IC50 [nM] | Ki [nM] | activity against the HIV protease enzyme | SMILES
89 | – | – | CCC1(N(CCO)C(=O)c2ccccc2CCC(O)Cc2ccc(C)cc2C(=O)N(CCO)C(C)(C)c2ccccc2)CCCC1 (centres unmarked) [Example 18]
76 | 2.5 | – | CCC1(N(CCO)C(=O)c2ccccc2CC[C@@H](O)Cc2ccc(C)cc2C(=O)N(CCO)C(C)(C)c2ccccc2)CCCC1 [Example 112]
– | – | more active | CCC1(N(CCO)C(=O)c2ccccc2CC[C@@H](O)Cc2ccc(C)cc2C(=O)N(CCO)C(C)(C)c2ccccc2)CCCC1 [Example 116a]
– | – | less active | CCC1(N(CCO)C(=O)c2ccccc2CC[C@H](O)Cc2ccc(C)cc2C(=O)N(CCO)C(C)(C)c2ccccc2)CCCC1 [Example 116b]
